This passage reports growth inhibition results from PubChem BioAssay (NCI).

The list shows a part of the results, in another mix than the full data. Some structures show a salt or complex split into parts, the way the source records it. Some compounds were tested as several samples or in several runs, with calls that do not always agree. Calls of active or inactive are those of the source. Cut-off read from the data, not from the text of the source: active = growth inhibition above about 70%; inactive = the rest.

The experiment in a line: NCI Yeast Anticancer Drug Screen. Data for the mlh1 strain (AID 171).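 Note: 0% = growth of vehicle-treated control cultures of the same strain.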 Particulars: S. cerevisiae mlh1 strain growth inhibition, stronger effect = higher value. As to the method: Growth inhibition of yeast strains with defined genetic alterations is measured as a screen for potential anti-cancer activity. Selected strains with alterations in DNA damage repair or cell cycle control were exposed to compounds and growth inhibition was measured relative to vehicle treated controls. The strain used in this assay is mlh1

With `[Au+].[N-]=[N+]=N.c1ccc([PH+](c2ccccc2)c2ccccc2)cc1`, the growth inhibition runs as follows: (at 1.2 µM) inactive: 9%; (at 3.7 µM) active: 86%; (at 11.0 µM) active: 99%; (at 33.0 µM) active: 94%; (at 100.0 µM) active: 87%.
The matching figures for `Cc1c2ccccc2cc2ccccc12.O=[N+]([O-])c1cc([N+](=O)[O-])c(O)c([N+](=O)[O-])c1`: inactive: -2%, inactive: -1%, inactive: 5%, inactive: 32% and active: 97%.
The matching figures for `[Au].[C-]#N.[C-]#N`: inactive: -16%, inactive: -7%, inactive: -7%, inactive: 3% and inactive: 11%.
The matching figures for `Cc1cc2ccccc2cc1C.O=[N+]([O-])c1cc([N+](=O)[O-])cc([N+](=O)[O-])c1`: inactive: 1%, inactive: 1%, inactive: 7%, inactive: 15% and inactive: 65%.
Turning to `Cc1ccc2ccc3ccc4ccccc4c3c2c1.O=C1c2cc([N+](=O)[O-])ccc2-c2c1cc([N+](=O)[O-])cc2[N+](=O)[O-]`, the growth inhibition is inactive: -1% (at 1.2 µM); inactive: 1% (at 3.7 µM); inactive: 5% (at 11.0 µM); inactive: 11% (at 33.0 µM); inactive: 24% (at 100.0 µM).
As for `[Au+].[Au+].c1ccc([PH+](c2ccccc2)c2ccccc2)cc1.c1ccc([PH+](c2ccccc2)c2ccccc2)cc1.n1n[n-]c(-c2nnn[n-]2)n1`, the growth inhibition runs as follows: (at 1.2 µM) inactive: 12%; (at 3.7 µM) inactive: 33%; (at 11.0 µM) active: 96%; (at 33.0 µM) active: 99%; (at 100.0 µM) active: 99%.
Turning to `O=[N+]([O-])C(F)(COCC(O)CO)[N+](=O)[O-]` (stereo not given), the growth inhibition by setting is: (at 1.2 µM) inactive: -8%; (at 3.7 µM) inactive: -21%; (at 11.0 µM) inactive: -10%; (at 33.0 µM) inactive: 45%; (at 100.0 µM) active: 91%.
The matching figures for `Nc1ccccc1.O=[N+]([O-])c1cc([N+](=O)[O-])cc([N+](=O)[O-])c1`: inactive: 2%, inactive: 9%, inactive: 47%, active: 99% and active: 99%.
